Molecules are shown by their SMILES.

The test system of this assay is rat chronic constriction injury of the sciatic nerve model. In words: Analgesic effect in rat chronic constriction injury of the sciatic nerve model (mechanical allodynia, von Frey filaments). The settings on record: 10 mg/kg PO. On the procedure: Test Example 6 Study on the analgesic effect of the compounds of the present invention on inhibiting pain in a rat chronic constriction injury of the sciatic nerve model
A 5% DMSO + 10% Solutol + 85% Saline solution was used.
Experimental animals: Sprague-Dawley rats, weighing 80-100 g, male, purchased from Beijing Vital River Laboratory Animal Technology Co., Ltd.
• 1) The surgical procedure was performed under aseptic conditions. • 2) Surgical instruments (scissors, forceps, scalpels, surgical cotton, and sutures) were sterilized before surgery. • 3) The animals were anesthetized with Zoletil 50 + xylazine hydrochloride injection (20 mg/kg + 8 mg/kg, intraperitoneal injection). The toes of the animals were pinched to confirm complete anesthesia before surgery. An ophthalmic ointment was applied to the eyes of the animals to prevent corneal drying. • 4) The skin in the surgical area of the left hind plantar surface was disinfected three times with iodophor and 70% ethanol. The surgery was started after the skin dried. • 5) The left sciatic nerve was isolated. Four loose ligatures were tied around the sciatic nerve using 4-0 chromic gut sutures at approximately 7 mm proximal to the bifurcation, with a spacing of about 1 mm between the ligatures. • 6) The wound was sutured. • 7) The surgical instruments were cleaned and sterilized using a hot bead sterilizer. • 8) After surgery, the animals were placed on a heating pad, and 5 mL of normal saline was injected subcutaneously to prevent dehydration. After the animals were fully awake (able to move freely), they were returned to their cages.
1) On days 7 to 9 post-surgery, the animals were placed in the testing environment to habituate for at least 30 minutes per day. 2) On day 10 post-surgery, the baseline measurement of mechanical allodynia (PWT) was performed on all animals.
On day 11 post-surgery, the animals in all groups were weighed and administered according to the grouping information.
The mechanical allodynia test was performed on each animal using testing filaments at 1 h and 2 h after a single dose administration.
• 1) The rats were placed individually in a Plexiglas box with a wire mesh floor to ensure that the paws of the rats could be tested. The rats were allowed to habituate for 15 minutes before the test. • 2) After habituation, the test was performed using testing filaments on the central plantar surface of the left hind paw of the rats. The testing filaments included 8 testing strengths: 3.61 (0.4 g), 3.84 (0.6 g), 4.08 (1 g), 4.31 (2 g), 4.56 (4 g), 4.74 (6 g), 4.93 (8 g), and 5.18 (15 g). During testing, the test filament was pressed vertically against the skin with enough force to bend the filament for 6-8 seconds, with an interval of 5 seconds between each test. During testing, a rapid paw withdrawal by the animal was recorded as a pain response. Paw withdrawal when the test filament was removed from the animal's skin was also recorded as a pain response. If the animal moved or walked around, it was not recorded as a pain response, and the test should be repeated. • 3) During the test, the 4.31 (2 g) filament was used first. […] The maximum strength of the testing filaments was 5.18 (15 g). • 4) The test results were recorded in the table below, where a pain response was recorded as "x" and no pain response was recorded as "o". [formula]
Mechanical allodynia is expressed as the paw withdrawal threshold (PWT) in the rat behavioral test, which is calculated according to the following formula: 50% response threshold (g) = (10^((Xf+kδ)))/10,000 [formula] • Xf = value of the final testing filament used in the test • k = tabular value (Chaplan et al. 1994, page 62) • δ = mean difference (0.224)
Data were analyzed using Prism software (GraphPad Software, Inc.).

Compound `CC(C)Cc1cc(F)c(-c2nn[nH]n2)c(N2CCN(Cc3cccnn3)[C@@H](C)C2)c1` came in with a PWT (testing time point 0 h) of 2.86 g, a PWT (testing time point 1 h) of 4.76 g and a PWT (testing time point 2 h) of 6.62 g.

(Values after EP4847503A1, “TETRAZOLE COMPOUND, PHARMACEUTICAL COMPOSITION THEREOF AND USE THEREOF” (dated 2026).)
